Reference: PMC8524670 (Pharmacology Research & Perspectives, 2021)

By UniProt entry, the sequences of proteins in these tests, tags left out. Residues count along the entry.
UniProt P08684, 2-503: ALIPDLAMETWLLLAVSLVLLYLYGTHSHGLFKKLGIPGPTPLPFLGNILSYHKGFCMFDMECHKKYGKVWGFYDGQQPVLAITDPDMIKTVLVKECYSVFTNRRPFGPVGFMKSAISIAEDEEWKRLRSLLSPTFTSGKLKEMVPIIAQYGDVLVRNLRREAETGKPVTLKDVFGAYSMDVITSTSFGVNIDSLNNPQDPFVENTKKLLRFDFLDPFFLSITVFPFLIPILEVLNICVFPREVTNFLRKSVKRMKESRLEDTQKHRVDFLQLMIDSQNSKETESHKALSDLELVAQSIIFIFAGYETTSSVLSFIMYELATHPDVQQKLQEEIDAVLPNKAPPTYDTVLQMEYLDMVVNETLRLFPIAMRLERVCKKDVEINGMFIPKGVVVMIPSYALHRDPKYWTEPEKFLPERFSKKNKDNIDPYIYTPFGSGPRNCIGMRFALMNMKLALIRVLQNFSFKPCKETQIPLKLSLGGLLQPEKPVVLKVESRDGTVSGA
UniProt P33261, whole entry: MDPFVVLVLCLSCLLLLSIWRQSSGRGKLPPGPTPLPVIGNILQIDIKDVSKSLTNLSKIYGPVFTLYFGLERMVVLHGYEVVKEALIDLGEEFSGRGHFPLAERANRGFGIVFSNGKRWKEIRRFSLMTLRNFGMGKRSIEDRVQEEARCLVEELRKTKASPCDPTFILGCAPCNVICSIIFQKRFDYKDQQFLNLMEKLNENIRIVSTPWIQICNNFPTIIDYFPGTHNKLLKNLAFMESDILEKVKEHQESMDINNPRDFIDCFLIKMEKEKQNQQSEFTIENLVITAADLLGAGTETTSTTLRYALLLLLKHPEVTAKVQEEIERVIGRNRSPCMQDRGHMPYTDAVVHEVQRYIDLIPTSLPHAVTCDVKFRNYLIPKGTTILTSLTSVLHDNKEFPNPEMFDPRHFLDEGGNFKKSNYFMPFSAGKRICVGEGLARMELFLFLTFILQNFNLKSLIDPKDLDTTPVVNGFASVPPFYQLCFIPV

What was measured:
[1] = molecular target: CYP3A (Homo sapiens, UniProt P08684); assay: CYP reversible inhibition in HLMs
[2] = molecular target: CYP2C19 (Homo sapiens, UniProt P33261); assay: CYP reversible inhibition in HLMs

C=CC(=O)N1CCC([C@@H]2CCNc3c(C(N)=O)c(-c4ccc(Oc5ccccc5)cc4)nn32)CC1 [zanubrutinib]
Ki [1]: 5.6 µM
Ki ([1]; Ki, midazolam, Ki = IC50/2): 7.15 µM
Ki ([1]; Ki, testosterone, Ki = IC50/2): 30.3 µM
Ki ([1]; Kiu, testosterone, unbound Ki): 23.9 µM
Ki [2]: 3 µM
Ki ([2]; Ki, S-mephenytoin, Ki = IC50/2): 3.79 µM

Like-named read-outs stand apart in the source and are kept apart here.
